{
  "source": "patent US20110046173A1",
  "about": "(priority 2009, published 2011)",
  "origin": "cited, not measured here",
  "system": "analgesia",
  "details": "mice; cited from earlier work",
  "data": [
    {"molecule": "CN1CC[C@]23c4c5ccc(O)c4O[C@H]2[C@@H](O)C=C[C@H]3[C@H]1C5", "note": "[Morphine, morphine]", "values": [
      {"measurement": "interaction with oxymorphone, oxycodone, fentanyl, alfentayl or meperidine", "value": "only additive effects"}
    ]},
    {"molecule": "L-methadone", "values": [
      {"measurement": "interaction with oxymorphone, oxycodone, fentanyl, alfentayl or meperidine", "value": "only additive effects"}
    ]}
  ]
}
